Legend:
sRAGE [1] = biological target: T1, sRAGE (Homo sapiens, UniProt Q15109); test: Radioligand binding of 125I-sRAGE to immobilized AGE-modified proteins (dose response); details: immobilized AGE-protein
T1 construct: full length soluble RAGE (100 nM; specific activity 7,000-8,000 cpm/ng)
Experimental: FIG. 1. Radioligand binding studies: dose response experiments. CML- or pentosidine BSA (5 μg) was immobilized to plastic wells and radioligand binding assays performed with increasing concentrations of purified ^125-I sRAGE +/− excess unlabelled sRAGE (50-fold molar excess). Bound tracer was eluted with buffer containing NP40 (1%) and NaCl (0.15M) and the data subjected to analysis as described in the Experimental Details section.
(§1) Radioligand binding assays. CML (free), CML-modifications of proteins, pentosidine (free), pentosidine modifications of proteins, methylglyoxal modifications of proteins were prepared according to previously published methods (24-30). All materials were devoid of endotoxin using the Detoxi-gel system (PIERCE®) and tested for negativity in the limulus amebocyte assay (SIGMA®). Gas chromatography-mass spectroscopy and HPLC analyses were performed and verified the identity of the prepared AGES. Specific AGE or control protein (5 μg) was loaded onto the wells of a NUNC MAXISORP® dish in sodium bicarbonate/sodium carbonate buffer (pH 9.8) overnight at 4° C. […] The material retrieved was then counted in a gamma counter (LKB). […]
(§2) Radioligand binding studies. […] Radioligand binding assays were performed as described and equilibrium binding data was analyzed according to the equation of Klotz and Hunston. […]

Amino acid sequences for entries named in this document (tags omitted). Residues count along the entry.
UniProt Q15109, 23-342 limits assumed: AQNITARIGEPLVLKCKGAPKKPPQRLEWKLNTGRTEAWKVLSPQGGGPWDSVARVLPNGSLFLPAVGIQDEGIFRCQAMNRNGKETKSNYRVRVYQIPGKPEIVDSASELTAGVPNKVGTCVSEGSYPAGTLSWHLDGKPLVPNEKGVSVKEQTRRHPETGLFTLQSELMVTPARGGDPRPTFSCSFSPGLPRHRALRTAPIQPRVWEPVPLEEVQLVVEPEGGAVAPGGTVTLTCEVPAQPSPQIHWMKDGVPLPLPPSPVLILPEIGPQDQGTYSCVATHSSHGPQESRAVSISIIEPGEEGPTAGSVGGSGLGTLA
UniProt Q15109, 23-404: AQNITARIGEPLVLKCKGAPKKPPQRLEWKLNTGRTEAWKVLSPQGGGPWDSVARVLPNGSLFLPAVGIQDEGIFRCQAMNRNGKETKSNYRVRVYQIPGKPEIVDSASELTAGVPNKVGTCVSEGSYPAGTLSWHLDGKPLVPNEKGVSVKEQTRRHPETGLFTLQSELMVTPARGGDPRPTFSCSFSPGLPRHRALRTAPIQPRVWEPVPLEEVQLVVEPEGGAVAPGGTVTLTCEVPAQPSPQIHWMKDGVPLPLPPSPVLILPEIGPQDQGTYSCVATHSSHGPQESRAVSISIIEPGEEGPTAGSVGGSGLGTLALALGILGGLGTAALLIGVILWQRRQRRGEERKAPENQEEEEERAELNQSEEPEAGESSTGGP

sRAGE [2] = biological target: T1, sRAGE; test: Radioligand competition: 125I-sRAGE (100 nM) binding to immobilized CML-BSA with competitors; details: competitor in excess
Experimental: FIG. 2. Radioligand binding studies: competition experiments. CML-BSA was immobilized to wells; binding was performed with ^125-I sRAGE (100 nM) with the indicated competitors. […] Percent maximal binding is reported compared to binding to immobilized CML-BSA without competitor (100%).
FIG. 3. Radioligand binding studies: CML-adducts interact with the V-type Ig domain of RAGE. CML-BSA was immobilized to wells; binding was performed with ^125-I sRAGE (100 nM) in the presence or absence of excess unlabelled (100-fold) V-type Ig domain, C1 Ig domain or C2 Ig domain. Percent maximal binding is reported compared to binding to immobilized CML-BSA without competitor (100%).
as §1, with “AGES.” for “AGES. Specific AGE or control protein (5 μg) was loaded onto the wells of a NUNC MAXISORP® dish in sodium bicarbonate/sodium carbonate buffer (pH 9.8) overnight at 4° C.”
as §2

NF-κB = test: Electrophoretic mobility shift assay for NF-κB in endothelial cells; format: cell-based, human; details: anti-RAGE IgG 70 μg/ml (high) and 7 μg/ml (low)
Experimental: FIG. 6. Electrophoretic mobility shift assay. Human umbilical vein endothelial cells (HUVEC) were incubated with mediators for 6 hrs; nuclear extracts were prepared and electrophoretic mobility shift assays performed with ^32P-labelled probe for NF-κB. Lanes contain mediators as above (all AGEs were added at 50 μg/ml). Lanes contain: lane 1, CML-ovalbumin; lane 2, native ovalbumin; lane 3, pentosidine ovalbumin; lane 4, nonimmune IgG and CML ovalbumin; lane 5, anti-RAGE IgG: 7 μg/ml; lane 6; anti-RAGE IgG: 70 μg/ml; lane 7: CML-ovalbumin/100-fold excess unlabelled NF-κB. Supershift assays (lane 8: anti-p50 IgG; lane 9:anti-p65 IgG; lane 10:both anti-p50 IgG and anti-p65 IgG; lane 11: preimmune IgG), all + CML-ovalbumin. Lane 12:CML-ovalbumin: vector alone/13:tail-deleted RAGE.
Electrophoretic mobility shift assays (EMSA). Nuclear extracts were prepared from HUVECs by the method of Schreiber (33). Protein concentration was determined using the Bradford reagent (BIO-RAD®). Double-stranded oligonucleotides representing a portion of the human VCAM-1 promoter containing an NF-κB site were synthesized (Life Technologies). Oligonucleotides were used as probe as follows: NF-κB: 5′[…]3′ (SEQ ID No. 1). Probes were 5′-end labelled with g-[^32P] ATP and polynucleotide kinase. Each reaction contained 10 fmol of probe and 2-5 microliter (1.5 μg) of nuclear extract. […]

[3] = test system: Human umbilical vein endothelial cells (HUVEC); test: Molt-4 binding assay on stimulated endothelial cells (cell surface VCAM-1 functional activity); format: cell-based; details: preincubation or co-incubation with CML-ovalbumin
Experimental: FIG. 4. Cellular activation studies: endothelial cells. HUVEC were incubated in the presence of the indicated mediators for 6 hrs. Where indicated, certain cells were preincubated with anti-RAGE/preimmune IgG for one hour. Cells were washed and incubated with ^51Cr-Molt-4 cells (bear VLA-4) for 1 hr. Bound radioactivity was eluted in the presence of SDS (1%) and counted in a gamma counter. Results are reported compared with Molt-4 cell binding to cells exposed to native ovalbumin (defined as “1”).
Molt-4 binding assays. Molt-4 binding assays were performed according to the general method of Marui et al (32). Human umbilical vein endothelial cells were stimulated with the indicated compound in the presence or absence of competitors for 6 hrs at 37° C. Molt-4 cells, which express VLA-4, ligand for VCAM-1, (ATCC) were grown in RPMI 1640 containing fetal bovine serum (10%). […] Before the binding assay, unincorporated radioactivity was removed by washing cells with Hank's balanced salt solution, and then resuspending them in RPMI containing fetal bovine serum (10%) at 4×10^6 cells/ml. Molt-4 cells were incubated with endothelial cells for one hr at 37° C., and nonadherent cells were removed by washing twice with Medium 199 containing fetal bovine serum (1%); adherent cells were solubilized in SDS (1%), and radioactivity counted in a gamma counter. […]

RAGE = RAGE (Homo sapiens, UniProt Q15109); test: Binding of CML-modified proteins to immobilized RAGE (Example 2)
Description: Advanced glycation endproducts (AGEs) are heterogeneous compounds that form in hyperglycemia, highly-oxidized environments and renal failure. AGEs accumulate in the plasma and tissues of patients with diabetes; their presence has been linked to the development of medical complications. Interaction of AGEs with Receptor for AGE ([…]) activates cells such as endothelial cells (Ecs) and monocytes (Mps) in a manner favoring the development of vascular/inflammatory cell complications. AGEs consist of structures such as carboxymethyl-lysine and pentosidine (both free and protein-bound forms). To begin to delineate which AGE forms interact with RAGE, we prepared free CML and pentosidine, as well as CML- and pentosidine bovine serum albumin (BSA) and ovalbumin (OVA). CML-BSA and CML-OVA bound immobilized RAGE in a dose-dependent and saturable manner, with Kd=60 nM, a process inhibited in the presence of anti-RAGE IgG and soluble RAGE (sRAGE), but not by nonimmune IgG, BSA, OVA, free CML or free pentosidine.

[4] = test system: human peripheral blood-derived mononuclear phagocytes; test: Monocyte chemotaxis assay in modified chemotaxis chambers; format: cell-based
Experimental: FIG. 5. Cellular activation studies: mononuclear phagocytes. Human monocytes (5×10^4) were placed in the upper wells of modified chemotaxis chambers with the indicated mediators in the lower wells for three hrs. Membranes were then stained with Giemsa and cells that migrated through the membrane toward the chemotactic stimulus counted per hpf.
Chenotaxis assays. Chemotaxis assays, performed in 48-well microchemotaxis chambers (Neuro-Probe) containing polycarbonate membranes were performed as previously described (15). In these studies, human peripheral blood-derived mononuclear phagocytes, which bear cell surface RAGE, were employed.
Mononuclear phagocytes. To determine if CML-ovalbumin mediated increased human peripheral blood-derived monocyte chemotaxis, experiments were performed in modified chemotaxis chambers as described above.

specific binding to sRAGE/RAGE (sRAGE [1])	effect on binding of 125I-sRAGE to immobilized CML-BSA (sRAGE [2])	effect on binding of CML-BSA and CML-OVA to immobilized RAGE (RAGE)	Substance	effect on CML-ovalbumin-induced activation of NF-κB in HUVEC (NF-κB)	effect on CML-ovalbumin-induced activation of NF-κB in HUVEC (NF-κB; listed as soluble RAGE)	effect on CML-ovalbumin-induced Molt-4 binding to HUVEC [3]	effect on CML ovalbumin-mediated monocyte chemotaxis [4]
did not bind specifically			methylglyoxal-HSA: methylglyoxal-modified human serum albumin				
	inhibited binding	inhibited	sRAGE: soluble receptor for advanced glycation endproduct(s)	inhibited activation	inhibited	diminished binding	completely inhibited

— US6753150B2, “Method for determining whether a compound is capable of inhibiting the interaction of a peptide with rage” (The Trustees of Columbia University in the City of New York, priority 1998, dated 2004)
